## AlphaSeq binding of Ab-14 light chain variants to a spike HR2 peptide

From the AlphaSeq antibody data of Li et al. 2023 (doi:10.1038/s41467-023-39022-2), copy in the FLAb collection.

All variants were tested on one target, the spike HR2 peptide PDVDLGDISGINAS (SARS-CoV-2).

Ab-14 is the parent antibody, in scFv form: VH, then the linker GGGGSGGGGSGGGGS, then VL. The heavy chain is unchanged in all variants.
VH: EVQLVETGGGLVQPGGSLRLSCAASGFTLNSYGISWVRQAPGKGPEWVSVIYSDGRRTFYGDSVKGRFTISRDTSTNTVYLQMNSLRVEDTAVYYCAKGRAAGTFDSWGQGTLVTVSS
VL: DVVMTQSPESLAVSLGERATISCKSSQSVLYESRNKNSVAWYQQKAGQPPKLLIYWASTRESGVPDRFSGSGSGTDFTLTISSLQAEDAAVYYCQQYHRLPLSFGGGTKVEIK

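These sequences belong to a second round, designed from the earlier measurements on random variants of the parent. Several design methods are mixed in this list. AlphaSeq pools MATa yeast showing the antibodies with MATalpha yeast showing the peptide. After mating in shaken culture at 30 °C for 16 h, diploids were selected and their barcode pairs sequenced. The ratio of observed to expected reads was calibrated, replicate by replicate, on BCL2-family standards whose Kd was known from biolayer interferometry. Each pool was mated in six replicate cultures.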

Positions count from residue 1 of the parent VL; S25V puts V in place of S.
Variants here have at most six changes.
The read-out is the apparent dissociation constant on a log10 scale (nM): the lower, the stronger.
Averages over replicates are reported, and they cover detected replicates only.
An entry "nd" has no value in the source: the pair was not observed among the diploids in that replicate. This suggests poor binding but is not conclusive.
Three control strains display no target. For all light chain designs, 4% of the pairings with them gave a signal, with a median of 2.64 and one signal in twenty below 1.59, so weak values seen in few replicates may be background.

changes,"replicates, log10 nM","log10 Kd (nM), mean"
S25V/Q27G/V29M/W56D,-0.40 / -0.38 / -0.30 / -0.74 / -0.46 / -0.47,-0.46
S25L/S26Q/W56Q,-0.41 / -0.56 / -0.54 / -0.57 / -0.64 / -0.48,-0.53
A57R/Y97L,nd / nd / nd / nd / nd / nd,nd
S26A/Y31S/W56D/R60L,1.05 / 0.39 / 0.23 / 0.30 / 1.23 / 1.34,0.76
S25W/S28L/Y31G/W56N/T59Q/S62E,0.55 / 0.44 / 0.22 / 0.12 / 0.16 / 0.51,0.33
R99S/S103F,nd / nd / nd / nd / nd / nd,nd
S25V/L30M/W56E,0.58 / 0.52 / -0.10 / -0.02 / 0.16 / -0.13,0.17
Q27F/V29Y/W56E,0.52 / 0.56 / 0.26 / 0.57 / 0.22 / 0.49,0.43
S25L/S26L/W56H/R99Q,0.25 / -0.01 / -0.09 / 0.06 / 0.10 / 0.38,0.12
S25L/V29Q/N35Q/W56N,-0.29 / -0.17 / -0.46 / -0.56 / -0.39 / 0.16,-0.28
S25F/S28P/W56N/L100Y,2.76 / 2.63 / 2.57 / 3.50 / 2.93 / 3.56,2.99
W56N/E61Y,0.83 / 1.71 / 0.88 / 1.28 / 0.66 / 2.26,1.27
S25C/Y31Q/W56N/T59Q/S62R,1.04 / 1.06 / 0.50 / 0.41 / 2.30 / 2.23,1.26
S28H/V29P/A57S/S62D/L102I,nd / nd / nd / nd / nd / nd,nd
R34L/L100N/P101H,nd / nd / nd / nd / nd / nd,nd
S26R/L30F/Q95K,nd / nd / nd / nd / nd / nd,nd
S33E/K36E/N37E/W56H/S62L/H98S,1.15 / 1.56 / 0.87 / 0.80 / 1.30 / 1.16,1.14
Q27I/W56E/L100P,2.02 / 0.54 / 0.73 / 1.32 / 0.88 / 1.15,1.11
S25V/S26Q/L30P/W56E,0.42 / 0.03 / 0.08 / -0.38 / -0.01 / 0.15,0.05
E32Q/S33L/R99G,nd / nd / nd / nd / nd / nd,nd
S25C/S26E/V29S/L30D/W56N/S62V,0.24 / 0.06 / 0.22 / 0.19 / 0.25 / 0.19,0.19
K24L/K36D/W56S,2.36 / 0.54 / 0.87 / 0.84 / 1.33 / 1.61,1.26
S33W/W56N/R60A,1.82 / 2.38 / 2.40 / 1.91 / 2.37 / 2.23,2.18
S25F/N35T/W56N/Q96A,0.26 / 0.26 / 0.30 / 0.10 / 0.13 / 0.09,0.19
K24H/Q27P/V29E/W56N,0.56 / 0.52 / 0.44 / -0.10 / 0.09 / 0.59,0.35
S25V/S38A/W56D/T59Q,-0.31 / -0.28 / -0.38 / -0.53 / -0.46 / -0.15,-0.35
S25D/S26L/W56H/S62D/R99Q,0.18 / 0.17 / 0.02 / 0.24 / 0.16 / 0.46,0.20
S25F/S28W/N35T/W56N/S62D,0.33 / 0.29 / -0.09 / 0.01 / -0.21 / 0.68,0.17
S26G/S28G/W56G/S58L/H98R,0.56 / 0.48 / 0.38 / 0.14 / 0.93 / 0.87,0.56
S25F/N35T/K36F/W56N,0.02 / 0.19 / 0.11 / -0.16 / 0.17 / 0.33,0.11
K24D/S28K/V29P/S62N,nd / nd / 2.11 / 2.68 / 1.45 / 1.68,1.98
R34K/W56G,nd / nd / 4.35 / nd / nd / nd,4.35
K24H/S25F/W56D,-0.22 / -0.27 / -0.28 / -0.57 / -0.25 / 0.07,-0.25
S25V/V29E/W56E/T59C,-0.53 / -0.30 / -0.52 / -0.63 / -0.41 / 0.05,-0.39
S25V/V29G/N37Q/W56N,-0.26 / -0.26 / -0.36 / -0.31 / -0.10 / -0.15,-0.24
S25L/V29W/W56E/A57G,-0.30 / 0.06 / -0.31 / -0.12 / 0.12 / 0.05,-0.08
S25L/V29D/W56G/E61L,-0.03 / -0.04 / -0.11 / -0.21 / 0.00 / 0.01,-0.06
S26R/S33D/Y97K,nd / nd / nd / nd / nd / 3.83,3.83
S25Q/Q27E/S38A/W56D,-0.19 / -0.57 / -0.33 / -0.55 / -0.35 / -0.31,-0.38
K36S/H98G,2.04 / 2.50 / 2.27 / 2.17 / 2.45 / 1.57,2.16
K24A/L30Y/L100M,1.85 / nd / nd / nd / nd / nd,1.85

The first 6 variants above that were never detected:

changes,"replicates, log10 nM","log10 Kd (nM), mean"
A57R/Y97L,nd / nd / nd / nd / nd / nd,nd
R99S/S103F,nd / nd / nd / nd / nd / nd,nd
S28H/V29P/A57S/S62D/L102I,nd / nd / nd / nd / nd / nd,nd
R34L/L100N/P101H,nd / nd / nd / nd / nd / nd,nd
S26R/L30F/Q95K,nd / nd / nd / nd / nd / nd,nd
E32Q/S33L/R99G,nd / nd / nd / nd / nd / nd,nd

The authors' rule: three or more of the six replicates give a measured affinity, fewer mean a poor binder.
The parent sequence was in this pool as ten entries: three were never detected, three once, and four in most replicates, with averages from 0.34 to 2.37.
The range of this assay differs from that of the first round, and the authors advise against merging the two.